Experimental data taken from PubChem BioAssay (NCATS).
The list shows a part of the results, in another mix than the full data. Inconclusive results are not listed. The source made the active and inactive calls. Unless noted, calls come from the whole dose curve; as a rule, active = well fitted curve in the direction sought with a large enough effect; inconclusive = small, poorly fitted or top-dose-only effect, or another doubt; inactive = no such curve, though single readings can be large; an effect the other way counts as inactive or inconclusive.

The chains behind the UniProt entries cited, without tags or fusion partners. Where a name states a change or a piece, a line headed by the entry shows the natural chain unless it says otherwise.
UniProt P78324, whole entry, looked up: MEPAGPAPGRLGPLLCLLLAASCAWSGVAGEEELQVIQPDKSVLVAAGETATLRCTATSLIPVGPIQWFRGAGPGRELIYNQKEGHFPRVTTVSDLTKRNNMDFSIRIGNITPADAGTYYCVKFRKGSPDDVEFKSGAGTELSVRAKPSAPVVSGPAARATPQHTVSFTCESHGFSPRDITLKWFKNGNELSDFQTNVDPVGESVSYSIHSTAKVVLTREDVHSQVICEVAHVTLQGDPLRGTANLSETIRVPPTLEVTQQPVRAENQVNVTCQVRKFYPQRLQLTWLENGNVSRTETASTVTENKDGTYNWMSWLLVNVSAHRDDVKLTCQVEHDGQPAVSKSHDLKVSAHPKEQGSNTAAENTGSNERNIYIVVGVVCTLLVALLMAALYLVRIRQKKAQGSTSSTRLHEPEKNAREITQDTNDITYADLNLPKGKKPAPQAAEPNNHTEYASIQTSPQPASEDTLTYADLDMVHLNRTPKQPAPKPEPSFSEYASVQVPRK
UniProt Q08722, whole entry, looked up: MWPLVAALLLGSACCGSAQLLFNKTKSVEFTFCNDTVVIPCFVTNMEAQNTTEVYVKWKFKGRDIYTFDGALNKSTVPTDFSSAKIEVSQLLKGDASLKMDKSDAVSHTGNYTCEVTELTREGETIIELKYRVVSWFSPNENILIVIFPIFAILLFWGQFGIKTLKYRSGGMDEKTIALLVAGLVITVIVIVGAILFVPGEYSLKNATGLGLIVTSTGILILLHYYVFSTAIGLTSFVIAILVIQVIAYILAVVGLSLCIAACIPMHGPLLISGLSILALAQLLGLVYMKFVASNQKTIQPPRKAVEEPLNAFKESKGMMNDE
UniProt Q03431: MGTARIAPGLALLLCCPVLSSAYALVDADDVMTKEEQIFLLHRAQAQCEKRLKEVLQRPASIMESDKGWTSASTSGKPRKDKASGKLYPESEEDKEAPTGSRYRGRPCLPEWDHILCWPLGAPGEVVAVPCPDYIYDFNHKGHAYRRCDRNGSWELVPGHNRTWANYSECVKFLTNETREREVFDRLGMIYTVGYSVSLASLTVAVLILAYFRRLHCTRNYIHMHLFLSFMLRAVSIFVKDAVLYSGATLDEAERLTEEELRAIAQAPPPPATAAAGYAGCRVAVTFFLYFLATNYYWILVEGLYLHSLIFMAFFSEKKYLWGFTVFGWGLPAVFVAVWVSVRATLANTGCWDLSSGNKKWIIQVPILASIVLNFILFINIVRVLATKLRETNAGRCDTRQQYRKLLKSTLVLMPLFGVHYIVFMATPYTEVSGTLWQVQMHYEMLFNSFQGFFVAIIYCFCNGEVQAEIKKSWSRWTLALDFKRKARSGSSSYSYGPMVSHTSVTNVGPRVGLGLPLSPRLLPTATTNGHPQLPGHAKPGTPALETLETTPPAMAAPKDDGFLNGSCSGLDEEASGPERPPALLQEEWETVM
UniProt Q9BV86: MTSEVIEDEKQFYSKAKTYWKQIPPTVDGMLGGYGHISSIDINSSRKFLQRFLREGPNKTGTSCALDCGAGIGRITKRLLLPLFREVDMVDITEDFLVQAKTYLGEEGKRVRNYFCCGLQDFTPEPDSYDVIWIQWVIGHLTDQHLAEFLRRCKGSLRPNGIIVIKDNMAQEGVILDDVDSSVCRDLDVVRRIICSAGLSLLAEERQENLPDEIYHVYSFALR
UniProt Q9UGL1: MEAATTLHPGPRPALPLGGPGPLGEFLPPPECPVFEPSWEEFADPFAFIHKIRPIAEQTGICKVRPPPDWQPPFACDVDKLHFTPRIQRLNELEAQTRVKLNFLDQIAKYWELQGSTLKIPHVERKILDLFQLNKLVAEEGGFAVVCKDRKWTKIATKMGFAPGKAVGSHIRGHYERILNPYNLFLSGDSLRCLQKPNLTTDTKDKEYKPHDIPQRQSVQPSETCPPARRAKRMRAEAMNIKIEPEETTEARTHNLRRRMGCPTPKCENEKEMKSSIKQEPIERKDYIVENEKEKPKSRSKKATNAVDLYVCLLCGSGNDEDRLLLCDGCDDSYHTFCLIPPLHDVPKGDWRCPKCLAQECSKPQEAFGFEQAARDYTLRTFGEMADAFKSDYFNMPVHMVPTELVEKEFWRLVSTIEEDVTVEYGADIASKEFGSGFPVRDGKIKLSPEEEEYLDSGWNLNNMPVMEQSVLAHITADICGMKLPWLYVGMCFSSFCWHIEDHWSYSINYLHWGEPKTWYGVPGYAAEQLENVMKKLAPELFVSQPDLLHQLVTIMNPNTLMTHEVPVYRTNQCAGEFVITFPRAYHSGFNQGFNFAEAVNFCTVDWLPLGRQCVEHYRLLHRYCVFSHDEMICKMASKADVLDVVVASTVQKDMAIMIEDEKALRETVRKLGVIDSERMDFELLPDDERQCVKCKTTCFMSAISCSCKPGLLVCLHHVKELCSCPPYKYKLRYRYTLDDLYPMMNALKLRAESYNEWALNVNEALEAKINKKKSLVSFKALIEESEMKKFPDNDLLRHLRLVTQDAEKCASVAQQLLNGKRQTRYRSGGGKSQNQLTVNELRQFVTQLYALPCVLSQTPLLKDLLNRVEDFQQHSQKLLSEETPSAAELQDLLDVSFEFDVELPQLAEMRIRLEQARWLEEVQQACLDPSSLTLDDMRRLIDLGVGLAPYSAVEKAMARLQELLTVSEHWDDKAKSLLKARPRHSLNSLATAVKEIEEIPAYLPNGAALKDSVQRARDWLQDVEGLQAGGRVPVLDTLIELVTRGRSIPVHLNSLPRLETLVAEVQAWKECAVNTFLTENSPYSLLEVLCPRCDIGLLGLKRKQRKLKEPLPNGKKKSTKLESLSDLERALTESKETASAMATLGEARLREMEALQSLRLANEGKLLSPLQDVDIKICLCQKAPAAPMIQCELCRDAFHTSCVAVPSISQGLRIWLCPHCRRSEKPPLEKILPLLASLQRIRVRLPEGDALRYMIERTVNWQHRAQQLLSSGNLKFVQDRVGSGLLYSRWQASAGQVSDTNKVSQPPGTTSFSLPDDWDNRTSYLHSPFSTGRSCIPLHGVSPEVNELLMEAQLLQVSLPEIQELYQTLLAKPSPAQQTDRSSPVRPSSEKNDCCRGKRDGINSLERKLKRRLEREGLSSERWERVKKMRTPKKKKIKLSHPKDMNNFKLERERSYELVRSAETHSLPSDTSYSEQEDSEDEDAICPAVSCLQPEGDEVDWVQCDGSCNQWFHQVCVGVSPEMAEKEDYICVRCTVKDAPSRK
UniProt Q9GZX7: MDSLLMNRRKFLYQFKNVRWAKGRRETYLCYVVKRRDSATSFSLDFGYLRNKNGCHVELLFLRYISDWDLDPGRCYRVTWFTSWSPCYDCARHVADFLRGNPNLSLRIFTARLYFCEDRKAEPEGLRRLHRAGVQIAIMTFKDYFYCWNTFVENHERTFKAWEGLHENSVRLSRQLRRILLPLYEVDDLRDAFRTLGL
UniProt Q99828: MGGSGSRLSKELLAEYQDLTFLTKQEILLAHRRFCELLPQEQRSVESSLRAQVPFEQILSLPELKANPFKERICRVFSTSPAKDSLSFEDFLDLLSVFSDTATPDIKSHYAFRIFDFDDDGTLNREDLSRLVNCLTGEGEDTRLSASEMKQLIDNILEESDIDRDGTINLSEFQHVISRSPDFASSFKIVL
UniProt P00784: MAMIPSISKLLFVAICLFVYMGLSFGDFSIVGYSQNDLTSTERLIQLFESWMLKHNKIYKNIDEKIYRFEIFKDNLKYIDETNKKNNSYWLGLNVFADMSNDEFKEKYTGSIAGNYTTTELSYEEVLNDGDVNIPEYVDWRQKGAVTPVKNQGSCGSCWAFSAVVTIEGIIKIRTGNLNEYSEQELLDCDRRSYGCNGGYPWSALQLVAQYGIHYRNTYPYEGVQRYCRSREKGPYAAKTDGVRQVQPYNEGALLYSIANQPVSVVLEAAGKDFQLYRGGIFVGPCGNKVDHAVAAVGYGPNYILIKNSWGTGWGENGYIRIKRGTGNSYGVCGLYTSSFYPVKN
UniProt C7C422: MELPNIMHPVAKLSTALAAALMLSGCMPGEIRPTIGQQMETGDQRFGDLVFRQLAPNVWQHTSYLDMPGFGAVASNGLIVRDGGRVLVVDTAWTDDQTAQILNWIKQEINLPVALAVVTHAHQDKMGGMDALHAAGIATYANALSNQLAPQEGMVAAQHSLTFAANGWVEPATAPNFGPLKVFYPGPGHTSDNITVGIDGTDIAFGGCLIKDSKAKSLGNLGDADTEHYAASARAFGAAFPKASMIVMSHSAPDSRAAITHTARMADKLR
UniProt P07203, whole entry, looked up: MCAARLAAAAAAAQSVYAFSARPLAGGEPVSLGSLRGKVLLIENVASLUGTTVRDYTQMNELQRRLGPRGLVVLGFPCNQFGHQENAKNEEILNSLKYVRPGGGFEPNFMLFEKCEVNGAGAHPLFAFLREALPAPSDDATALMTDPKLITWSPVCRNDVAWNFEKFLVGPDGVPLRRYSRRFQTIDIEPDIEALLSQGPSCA
UniProt P36969, whole entry, looked up: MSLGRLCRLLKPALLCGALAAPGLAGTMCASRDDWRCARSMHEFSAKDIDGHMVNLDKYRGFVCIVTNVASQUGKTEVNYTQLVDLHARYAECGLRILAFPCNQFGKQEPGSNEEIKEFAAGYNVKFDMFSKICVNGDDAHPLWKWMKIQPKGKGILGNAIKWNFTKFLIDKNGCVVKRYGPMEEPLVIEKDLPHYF

Key:
[1] = biological target: T1, Tyrosine-protein phosphatase non-receptor type substrate 1 (Homo sapiens) + Leukocyte surface antigen CD47 (Homo sapiens) (UniProt P78324+Q08722); experiment: CD47-SIRPalpha protein protein interaction - LANCE assay qHTS validation (AID 1347057; active = well fitted curve in the direction sought with a large enough effect in the signal ratio, with a control signal flat, not every such curve was filed as active; the % refers to the signal ratio; note: 0% is about no effect); details: Recombinant CD47-His / biotin-SIRPalpha, TR-FRET ratio; at 38.3 µM (top of the series)
Procedure, shortened: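 First, His-tagged CD47 and Eu-labelled anti-His antibody met the compound for 30 min; next, site-specifically biotinylated SIRPalpha was added for 30 min; finally streptavidin-APC was added before reading the TR-FRET ratio.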

[2] = biological target: T1, Tyrosine-protein phosphatase non-receptor type substrate 1 (Homo sapiens) + Leukocyte surface antigen CD47 (Homo sapiens); experiment: CD47-SIRPalpha protein protein interaction - HTRF assay qHTS validation (AID 1347058; active = well fitted curve in the direction sought with a large enough effect in the signal ratio, not every such curve was filed as active; the % refers to the signal ratio;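 note: recombinant soluble extracellular CD47 with His tag and biotinylated SIRPalpha domains; 0% is about no effect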); details: TR-FRET HTRF CD47-His / biotin-SIRPalpha binding, ratio 665/615; at 38.3 µM (top of the series)
Procedure, shortened: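 TR-FRET read (Ch1/Ch2 ratio) of soluble extracellular CD47 and Avi-biotinylated SIRPalpha domains in PBS pH 7.4 with 0.05% IGEPAL; 7-point compound titration. Sequential 30 min room-temperature steps; non-biotinylated SIRPalpha as control inhibitor.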

[3] = biological target: T1, Tyrosine-protein phosphatase non-receptor type substrate 1 (Homo sapiens) + Leukocyte surface antigen CD47 (Homo sapiens); experiment: CD47-SIRPalpha protein protein interaction - Alpha assay qHTS validation (AID 1347059); details: AlphaScreen CD47-His/biotin-SIRPalpha binding, LOPAC; at 38.3 µM (top of the series);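 note: bead proximity luminescence from CD47 binding SIRPalpha after compound preincubation with SIRPalpha; % is set by controls: 0 for no effect and ±100 for the full control effect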
Procedure, shortened: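 Biotinylated Avi-tagged SIRPalpha (25 nM) preincubated 30 min with compound, then His-tagged CD47 (12.5 nM) added 30 min; AlphaScreen with Ni-NTA acceptor and streptavidin donor beads. PBS pH 7.4, 0.05% IGEPAL, room temperature; 7-point titrations.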

[4] = biological target: Parathyroid hormone/parathyroid hormone-related peptide receptor (Homo sapiens) (UniProt Q03431); experiment: qHTS for PTHR1 Agonists: Optimization Screen against the NCGC LOPAC library (AID 1347079); details: HEK293 GP2 PTHR1 GloSensor cAMP luminescence, 1 h; at 57.1 µM (top of the series);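 note: GloSensor cAMP luminescence in HEK-293 GP2 cells expressing human PTHR1 with IBMX; 0% is about no effect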
Procedure, shortened: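 Agonist readout: GloSensor cAMP luminescence, read after 15 min at room temperature. HEK-293-derived GP2 line carries PTHR1; compounds tested as a titration for 1 hr at 37C in presence of IBMX. M-PTH (1-15) served as control.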

[5] = biological target: N-terminal Xaa-Pro-Lys N-methyltransferase 1 (Homo sapiens) (UniProt Q9BV86); experiment: qHTS Assay for Inhibitors of N-terminal methyltransferase 1 (NTMT1): LOPAC validation of the NTMT1 SAHH-coupled ThioGlo3 Assay (AID 1347143); details: recombinant NTMT1, SAHH-coupled ThioGlo3 fluorescence; at 114 µM (top of the series);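 note: SAH from peptide methylation measured as thiol fluorescence via SAHH coupling and ThioGlo3; % is set by controls: 0 for no effect and ±100 for the full control effect; nearly all actives have a fitted effect of over 70% in size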
Procedure, shortened: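 Recombinant human NTMT1 (125nM) was pre-incubated 1 min at room temperature with compounds over a concentration range, then a mix of 100uM SAM, 10uM SAHH and 15uM ThioGlo3 (concentrations in added reagent) was added. ThioGlo3 fluorescence (ex 340/em 450nm) after 30 min was normalized to the initial reading.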

[6] = biological target: Lysine-specific demethylase 5B (Homo sapiens) (UniProt Q9UGL1); experiment: Optimization screen for KDM5B Histone Demethylases FDH coupled qHTS against the LOPAC library (AID 1347166); details: KDM5B demethylation, FDH-coupled NADH fluorescence (FDH is formaldehyde dehydrogenase); at 57.5 µM (top of the series); note: 0% is about no effect
Procedure, shortened: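 KDM5BDeltaAP (200nM final) preincubated 10 min with compound, then 12.5uM H3K4Me3, 25uM a-ketoglutarate, ascorbate, Fe(II), NAD+ and FDH added; 50mM HEPES pH 7.5, 0.01% Tween-20. NADH fluorescence (340/450 nm) change over 30 min, room temperature.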

[7] = qHTS to identify inhibitors of the type 1 interferon - major histocompatibility complex class I in skeletal muscle: primary screen against the NCATS LOPAC collection (AID 1347405); details: iHSKM muscle cells, IFN-b-induced MHC-I HiBiT luminescence, 24 h; at 45.9 µM (top of the series);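 note: lytic HiBiT luminescence reporting HLA-B protein level; % is set by controls: 0 for no effect and ±100 for the full control effect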
Procedure, shortened: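 Luminescence from HiBiT fused to endogenous HLA-B in CRISPR-engineered human myoblasts served as the read-out. Cells received 4.0 ng/ml IFN-beta plus compound (seven concentrations, 1:4.3 steps, highest 46 uM final) for 24 hrs before lytic detection.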

[8] = qHTS for inhibitors of adenylyl cyclases using a fission yeast platform: a pilot screen against the NCATS LOPAC library (AID 1347410);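 note: plate controls were DMSO vehicle for no effect and DPI positive control for full effect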; details: S. pombe CHP2027, fbp1-GFP fluorescence, 18 h, yeast expressing mammalian AC9 and human GNAS; at 57.5 µM (top of the series)
Procedure, shortened: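 Read-out: fbp1-GFP fluorescence by laser scanning cytometry (488 nm laser), a gain of signal when AC/cAMP-PKA signalling is inhibited. Strain CHP2027 expressing AC9, GNAS and PDE4D2; compounds at up to 57 µM; 18 h, 30C.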

[9] = Validation qHTS assay for inhibitors of Activation Induced Cytidine Deaminase (AID): UDG Counterscreen signal (AID 1347427); details: biochemical UDG counterscreen, fluorescence signal; at 115 µM (top of the series); note: 0% is about no effect
Procedure, shortened: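 Counterscreen read of UDG activity (2 U/mL, 4/3x) in the FRET deamination format with AID (1 uM, 4/3x), DJC20/DJC23 substrates (250 nM, 4x), 4 h at room temperature. NaOH stop, fluorescence at 560 ex/665 em.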

[10] = biological target: Single-stranded DNA cytosine deaminase (Homo sapiens) (UniProt Q9GZX7); experiment: Validation qHTS assay for inhibitors of Activation Induced Cytidine Deaminase (AID): AID signal (AID 1347429); details: Recombinant AID, FRET ssDNA deamination with UDG, fluorescence; at 115 µM (top of the series); note: % is set by controls: 0 for no effect and ±100 for the full control effect
Procedure, shortened: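 Fluorescence at 540 nm excitation and 590 nm emission reports ssDNA cytosine deamination by AID, with UDG in the same well. Compound-treated reactions ran 4 hr at room temperature with DJC20/DJC23 substrate, followed by 30 min NaOH treatment.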

[11] = biological target: Calcium and integrin-binding protein 1 (Homo sapiens) (UniProt Q99828); experiment: Validation qHTS for Identification of Calcium Integrin Binding protein 1 (CIB1) Competitor (AID 1508618); details: CIB1-GST / FITC-alphaIIb peptide fluorescence polarization; at 114 µM (top of the series); note: % is set by controls: 0 for no effect and ±100 for the full control effect
Procedure, shortened: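 Fluorescence polarization with 1 uM CIB1-GST and 100 nM FITC-alphaIIb peptide in HEPES pH 7.4, NaCl, 5 mM CaCl2, Tween20. Compounds at up to 114 uM final, preincubated with protein 15 min; read after 15 min more at RT.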

[12] = Counterscreen qHTS for small molecule stabilizers of the endoplasmic reticulum resident proteome: GLuc-NoTag assay (AID 1508627); details: Gaussia luciferase NoTag secretion counterscreen, luminescence, thapsigargin 100 nM for final 4 h; at 76.4 µM (top of the series);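 note: SH-SY5Y cells given compound then 100 nM thapsigargin to empty ER calcium; 0% = thapsigargin alone and -100% = DMSO vehicle control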
Procedure, shortened: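 SH-SY5Y cells stably expressing constitutively secreted GLuc without SERCaMP tag, exposed to compound for 19 hr, then to 100 nM thapsigargin for 4 hr at 37C. Medium luciferase was read by coelenterazine luminescence without lysis.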

Papain (Carica papaya) = Papain (Carica papaya) (UniProt P00784); experiment: Primary qHTS assay for inhibitors of the protease papain (AID 1645873); details: papain Z-FR-AMC cleavage, AMC fluorescence; at 49.8 µM (top of the series)
[13] = biological target: Metallo-beta-lactamase type 2 (Klebsiella pneumoniae) (UniProt C7C422); experiment: qHTS to identify inhibitors of the New Delhi Metallo-beta-lactamase (NDM): assay validation screen against the NCATS LOPAC Collection (AID 1794843); details: NDM-1 enzyme, nitrocefin hydrolysis, absorbance 485 nm; at 38.4 µM (top of the series)
Procedure, shortened: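 NDM-1 at 2 nM final in 50 mM HEPES pH 7.0, 1 uM ZnSO4, 0.01% Tween20, preincubated with LOPAC compounds pinned in DMSO; 50 uM nitrocefin (stock) added. Hydrolysis read as absorbance at 485 nm in the plateau phase.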

[14] = biological target: Glutathione peroxidase 1 (Homo sapiens) (UniProt P07203); experiment: Primary qHTS Assay for Inhibitors of Recombinant Selenoprotein Glutathione Peroxidase 1 (GPX1) (AID 1845191); details: recombinant GPX1, GR-coupled NADPH fluorescence, 15 min; activity, negative = inhibition: at 48.8 µM (top of the series); note: % is set by controls: 0 for no effect and ±100 for the full control effect; nearly all actives have a fitted effect of over 65% in size
Procedure, shortened: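 GR-coupled assay: compounds preincubated 30 min at room temperature with GPX1, then reaction started with CHP; final 10 nM GPX1, 1 mM GSH, 0.5 mM CHP, 0.5 mM NADPH, 100 nM GR, 0.01% BSA, pH 7.5 Tris buffer. NADPH fluorescence (340/450 nm) read at 0 and 15 min.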

[15] = biological target: Phospholipid hydroperoxide glutathione peroxidase GPX4 (Homo sapiens) (UniProt P36969); experiment: Primary qHTS Assay for Inhibitors of Recombinant Selenoprotein Glutathione Peroxidase 4 (GPX4) (AID 1845192); details: recombinant GPX4, GR-coupled NADPH fluorescence, 15 min; activity change, negative = inhibition: at 50 µM (top of the series); note: % is set by controls: 0 for no effect and ±100 for the full control effect; nearly all actives have a fitted effect of over 65% in size
Procedure, shortened: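 GR-coupled assay: recombinant GPX4 preincubated 30 min with compound at room temperature; final 200 nM GPX4, 1 mM GSH, 0.5 mM cumene hydroperoxide, 0.5 mM NADPH, 100 nM GR, 0.01% BSA, pH 7.5 Tris. NADPH fluorescence (340/450 nm) read at 0 and 15 min.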

CN(C(=O)Cc1ccc(Cl)c(Cl)c1)[C@@H]1CC[C@]2(CCCO2)C[C@H]1N1CCCC1
inactive: activity change, negative = inhibition [1] -0.0739% | activity change, negative = inhibition [2] 2.23% | activity change, negative = inhibition [3] 0.911% | activation [4] -29% | activity change, negative = inhibition [5] -21% | activity, negative = inhibition [6] -7.54% | activity change, negative = inhibition [7] -4.79% | activity, positive = inhibition (GFP gain) [8] -0.438% | activity, negative = inhibition [9] 10.7% | activity change, negative = inhibition [10] 19.7% | activity change, negative = inhibition [11] 10.2% | activity change, negative = inhibition [12] -24.8% | activity change, negative = inhibition (Papain (Carica papaya)) 1.35% | activity change, negative = inhibition [13] -14.7% | activity, negative = inhibition [14] -7.21% | activity change, negative = inhibition [15] -13%
